In this assay the target is human hemoglobin (human, UniProt P69905 2-142; P68871 2-147). Briefly: ELISA (immunoassay of Experiment 3-3), absorbance at 405 nm.

Chains of the proteins cited; added tags and fusions are not shown. Residues count along the entry.
UniProt P69905, 2-142 limits assumed, chain 1 of 2: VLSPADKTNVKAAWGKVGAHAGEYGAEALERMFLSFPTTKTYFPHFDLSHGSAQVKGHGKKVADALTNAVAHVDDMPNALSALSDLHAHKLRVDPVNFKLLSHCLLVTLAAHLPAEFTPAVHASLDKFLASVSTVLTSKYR
human hemoglobin, UniProt P68871, 2-147 limits assumed, chain 2 of 2: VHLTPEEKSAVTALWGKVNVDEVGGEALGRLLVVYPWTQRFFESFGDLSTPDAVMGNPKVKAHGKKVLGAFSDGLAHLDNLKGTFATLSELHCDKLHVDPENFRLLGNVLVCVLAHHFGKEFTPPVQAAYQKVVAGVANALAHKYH

B1: monoclonal antibody ECL2B-2 (antibody, V domains shown)
VH: DVKLVESGGGLVKPGGSLKLSCAASGFTFSRYTMSWVRQTPEKRLEWVATISSGGSYTYYPDSVKGRFTISRDIAKNTLYLQMSSLKSEDTALYYCTREGGYGAFASWGQGTLVTVS
VL: DVLMTQTPLSLPVSLGDQASISCRSSQSIVHSNGNTYLEWYLQKPGQSPKLLIYKVSNRFSGVPDRFSGSGSGTDFTLKINRVAAEDLGVYYCFQGSHVPWTFGGGTKLEIKR
notes: also called intact monoclonal antibody ECL2B-2
With B1, the binding result is on record as “no binding”.

B2: monoclonal antibody ECL2B-3 (antibody, V domains shown)
VH: QIQLVQSGPELKKPGETVKISCKASGYTFTNYGMNWVKQAPGKGLEWMGWINTYTGEPTYAGDFMGRSVFSLETSASTAYLQINNLENKDTATYICARSGSPYAMDYWGQGTSVTVS
VL: DIALTQSPASLAVSLGQRATISCKASQSVDYDGDSYMNWFQQKPGQPPKLLIYAASNLESGIPGRFSGSGSGTDFTLNIHPVEEEDIATYYCQQSYEDPFTFGSGTILDIKR
Turning to B2, the binding result is “no binding”.
